MmCpn inh = Inhibitors of TCP-1 ring complex (TRiC) of Methanococcus maripaludis (MmCpn): qHTS | Chaperonin Mm-Cpn (Methanococcus maripaludis) | purified Mm-Cpn ATPase, ADP Transcreener TR-FRET | Potency, µM (series often up to 76.9 µM), usual class: inhibitors | 330,000 compounds, 0.031% hits | AID 504842, 2011; active = well fitted inhibition curve with a large enough effect; inconclusive = small, poorly fitted or top-dose-only effect; note: nearly all actives have a fitted effect of over 80% in size
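Reaction buffer contained 30 mM Tris pH 7.4, 100 mM KCl, 5 mM MgCl2 and 1 mM DTT. Mm-CPN (25 nM final) hydrolysed 10 uM ATP over 30 min at 37°C; ADP was read by HTRF.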
Rango dissoc inh = qHTS Assay for Inhibitors of RanGTP induced Rango (Ran-regulated importin-beta cargo) - Importin beta complex dissociation; Biochemical FRET Rango-importin beta, RanGTP-induced dissociation; Potency, µM (highest dose often 46.1 µM); 340,000 compounds, 0.071% hits; AID 540253, 2011; note: nearly all actives have a fitted effect of over 45% in size
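Rango FRET biosensor (snurportin-1 IBB flanked by N-terminal EYFP and C-terminal CFP10) at 0.1 uM, with 0.25 uM importin beta in PBS, 1mM DTT, 0.02% Tween-20, 0.1% BSA. 0.6 uM Ran, 2mM GTP and 0.2 uM RCC1 were then added for 45 min at room temperature. Inhibition read as loss of FRET rise.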
Rango complex inh = qHTS Assay for Inhibitors of Rango (Ran-regulated importin-beta cargo) - Importin beta complex formation. Rango CFP/YFP FRET sensor + importin beta, 45 min. Potency, µM (series often up to 92.2 µM). 340,000 compounds, 0.031% hits; note: nearly all actives have a fitted effect of over 15% in size
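Inhibition scored from the CFP 486 nm/YFP 530 nm FRET ratio 45 min after adding 0.125 microM importin beta to 50 nM Rango biosensor preincubated 5 min with compound (room temperature, PBS with DTT, Tween-20, BSA). No-importin wells as positive control.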
Giardia kill = Small Molecules that selectively kill Giardia lamblia: qHTS. Giardia lamblia trophozoite viability. activity change, % at 7.66 µM, hits read low. 340,000 compounds, 0.15% hits; in the data active = activity change below about -80%; inconclusive = between about -30% and that limit;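 note: parasites exposed to compound for two days anaerobically before the ATP read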
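Anaerobic 48 hrs incubation at 37 deg C of 100 trophozoites/well with test compounds; ATPLite 1-Step luminescence, 15-30 min RT, reports cellular ATP as viability.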
CCT modulator = High-Throughput Screening for Modulators of Cytosolic Chaperonin Activity; purified chaperonin ATPase assay, HTRF ADP detection, 30 min; activity change, % (test concentration not listed), hits read low; 360,000 compounds, 0.3% hits; in the data active = activity change below about -30%
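Enzyme 40 or 20 nM (batch-dependent) in Tris pH 7.4/KCl/MgCl2/DTT; cpd 76 uM single point; ATP 10 uM; 30 min 37 °C; Transcreener ADP HTRF detection, 30 min RT; ratio 665/615.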
A number is an active result; i = inactive; ? = inconclusive; nt = no result given; [ ] = another dose, or the depositor's remark. In the library only some 0.53% were active in any assay of this set; here they are far more common. Unless noted, calls come from the whole dose curve.

SMILES | MmCpn inh | Rango dissoc inh | Rango complex inh | Giardia kill | CCT modulator
COc1ccc(C2C3=C(CCCC3=O)Nc3nc(SCc4ccccc4)nn32)cc1OC (configuration not stated) | i | i | i | i | -31
CCc1ccc(C2C(C#N)=C(N)SC(N)=C2C#N)s1 | 35µM | 10µM | ? | i | i
CCc1ccc(C2C(C#N)=C(N)SC(N)=C2C#N)cc1 | i | ? | ? | i | i
CC1CCCN(C(=O)c2ccc([N+](=O)[O-])o2)C1 (configuration not stated) | i | i | i | -84 | i
CCC1CCCCN1C(=O)c1ccc([N+](=O)[O-])o1 (configuration not stated) | i | i | i | -97 | i
CC1CCN(C(=O)c2ccc([N+](=O)[O-])o2)CC1 | i | i | i | ? | i
CCC1CCCCN1C(=O)c1noc(C(C)C)c1[N+](=O)[O-] (configuration not stated) | i | i | i | i | i
Cn1cccc([N+](=O)[O-])c1=O | nt | nt | nt | nt | i
Cn1c(=O)c(=O)n(C)c2cc([N+](=O)[O-])c([N+](=O)[O-])cc21 | i | i | i | i | -32
NC(=O)c1ccsc1NC(=O)c1ccc([N+](=O)[O-])o1 | i | i | ? | -95 | i
NC(=O)c1ccsc1NC(=O)COC(=O)c1ccc([N+](=O)[O-])o1 | i | i | i | i | i
N#Cc1c(NC(=O)c2ccc([N+](=O)[O-])o2)sc2c1CCC2 | i | i | i | -94 | i
NC(=O)c1c(NC(=O)c2ccc([N+](=O)[O-])o2)sc2c1CCCC2 | i | i | i | -91 | i
CN1CCc2c(sc(NC(=O)c3ccc([N+](=O)[O-])o3)c2C(N)=O)C1 | i | i | ? | ? | i
CCOc1ccc(NC(=O)CSc2nnc3c(n2)[nH]c2ccc(S(=O)(=O)N(C)C)cc23)cc1 | nt | nt | nt | i | nt
COc1ccc(C2C(C#N)=C(N)Oc3c2oc(CO)cc3=O)c(OC)c1OC (configuration not stated) | i | i | i | i | -34
COc1cccc(C2C(C#N)=C(N)Oc3c2oc(CO)cc3=O)c1OC (configuration not stated) | i | i | ? | i | i
CCc1nc(-c2ccc(-c3ccc(OC)cc3)nc2OC)no1 | i | ? | i | i | i
COc1ccc(-c2ccc(-c3noc(C(C)C)n3)c(OC)n2)cc1 | i | 0.0082µM | ? | i | i
CN1CC2(Cc3cc([N+](=O)[O-])ccc31)C(=O)OC(C)(C)OC2=O | nt | nt | nt | i | nt
COc1cnn(-c2ccc(F)cc2)c(=O)c1Br | i | i | i | i | -66
CN1CCN(/C=N/C2=C(C#N)C(c3ccccc3)C3=C(CC(C)(C)CC3=O)O2)CC1 (configuration not stated) | i | i | i | i | -34
COc1cccc(Cn2ncc3c4sc(Br)cc4n(C)c3c2=O)c1 | i | nt | nt | nt | nt
Cc1cc(SCC(=O)NCC2CCCO2)nc2ccccc12 (configuration not stated) | i | i | 37µM | i | i
Cc1nnc(SCC(=O)Nc2ccc(N(C)C)cc2)[nH]c1=O | nt | nt | nt | i | nt
SMILES | MmCpn inh | Rango dissoc inh | Rango complex inh | Giardia kill | CCT modulator
CC1(C)C(=O)N(OCc2ccccc2)C(C)(C)C(=O)N1OCc1ccccc1 | i | i | i | i | -32
Cc1ccc2c(C(=O)N3CCN(c4ccccc4)CC3)cc(-c3cccnc3)nc2c1C | i | i | i | i | -43
O=S(=O)(Nc1cccc2ccccc12)c1ccc2ccccc2c1 | nt | nt | nt | i | nt
CSc1ccc(C2Nc3cccc4cccc(c34)N2)cc1 | i | i | i | i | i
Clc1ccc(C2Nc3cccc4cccc(c34)N2)cc1 | i | i | i | i | -56
O=C(COC(=O)c1cc(S(=O)(=O)N2CCOCC2)c(Cl)cc1Cl)NCc1ccco1 | i | ? | i | i | i
O=C(NCc1ccco1)c1cc(S(=O)(=O)N2CCOCC2)c(Cl)cc1Cl | i | i | i | i | -67
COc1ccc2c(c1)c1nnc(SC)nc1n2Cc1ccccc1 | nt | nt | nt | i | nt
Cc1ccc(-c2nn(-c3ccccc3)cc2CSC(=N)N)cc1 | i | i | i | i | -59
Oc1[nH]c2c(Cl)cc(Cl)cc2c1N=NC(=S)NCC1CCCO1 (configuration not stated) | i | i | i | i | -40
O=[N+]([O-])c1ccc(-c2nc(-c3cccs3)c(-c3cccs3)[nH]2)cc1 | i | i | 9.2µM | i | i
O=[N+]([O-])c1cccc(-c2nc(-c3cccs3)c(-c3cccs3)[nH]2)c1 | i | i | i | i | i
NS(=O)(=O)c1ccc(CNS(=O)(=O)c2cc(Cl)ccc2Cl)cc1 | i | i | i | i | -38
O=[N+]([O-])c1cccc(CN2C(COCc3ccccc3)CCC=CS2(=O)=O)c1 (configuration not stated) | nt | nt | nt | i | nt
COc1ccc(C(=O)Nc2nc3ccccc3s2)c(OC)c1 | i | i | i | -95 | i
COc1ccccc1C(=O)Nc1nc2ccccc2s1 | i | i | i | ? | i
COc1cccc(NS(=O)(=O)c2ccc3[nH]cc(C(=O)NC(C)c4ccccc4)c(=O)c3c2)c1 (configuration not stated) | nt | nt | nt | i | nt
Cc1ccc(S(=O)(=O)N2CCN(c3nc(-c4cccs4)nc4c3ncn4COC(=O)C(C)(C)C)CC2)cc1 | nt | nt | nt | i | nt
COc1ccc(-c2nc(-c3ccncc3)no2)cc1 | i | i | i | i | i
CCn1nc(-c2ccc(C)cc2)nc2c(=O)n(C)c(=O)nc1-2 | nt | nt | nt | -102 | nt
Cn1nc(-c2ccncc2)nc2c(=O)n(C)c(=O)nc1-2 | nt | nt | nt | -88 | nt
CCS(=O)(=O)n1nc(-c2ccc(C)cc2)nc1N | i | i | i | i | i
C=C1C=C(C(F)F)n2ncc(C(=O)Nc3ccc(C(C)CC)cc3)c2N1 (configuration not stated) | i | nt | nt | nt | nt
Cc1ccc(S(=O)(=O)N2CCN(c3nc(-c4cncnc4)nc4ccccc34)CC2)cc1 | nt | nt | nt | i | nt
CC1(C)CC(c2csc(N)n2)CCO1 (configuration not stated) | i[15.4 µM] | i | i | i | -39
O=C(Nc1ccc(S(=O)(=O)Nc2nccs2)cc1)c1cnc(Cl)c(Cl)c1 | i | 10µM[inhibitor] | ? | i | i
O=C(Nc1ccc(S(=O)(=O)Nc2nccs2)cc1)c1cccc(N2C(=O)c3ccccc3C2=O)c1 | i | i | ? | ? | i
O=C(CSc1ccc(Br)c2cccc(Cl)c12)Nc1ccc(S(=O)(=O)Nc2nccs2)cc1 | ? | i | i | i | -37
O=C(Cc1ccccc1Cl)Nc1ccc(S(=O)(=O)Nc2nccs2)cc1 | i | i | i | i | i

Source: PubChem BioAssay
